Results on one compound are retold here after PMC4042408 (ACS chemical biology, 2013).

Amino acid sequences for entries named in this document (tags omitted). Residues count along the entry.
UniProt P21836, 32-614: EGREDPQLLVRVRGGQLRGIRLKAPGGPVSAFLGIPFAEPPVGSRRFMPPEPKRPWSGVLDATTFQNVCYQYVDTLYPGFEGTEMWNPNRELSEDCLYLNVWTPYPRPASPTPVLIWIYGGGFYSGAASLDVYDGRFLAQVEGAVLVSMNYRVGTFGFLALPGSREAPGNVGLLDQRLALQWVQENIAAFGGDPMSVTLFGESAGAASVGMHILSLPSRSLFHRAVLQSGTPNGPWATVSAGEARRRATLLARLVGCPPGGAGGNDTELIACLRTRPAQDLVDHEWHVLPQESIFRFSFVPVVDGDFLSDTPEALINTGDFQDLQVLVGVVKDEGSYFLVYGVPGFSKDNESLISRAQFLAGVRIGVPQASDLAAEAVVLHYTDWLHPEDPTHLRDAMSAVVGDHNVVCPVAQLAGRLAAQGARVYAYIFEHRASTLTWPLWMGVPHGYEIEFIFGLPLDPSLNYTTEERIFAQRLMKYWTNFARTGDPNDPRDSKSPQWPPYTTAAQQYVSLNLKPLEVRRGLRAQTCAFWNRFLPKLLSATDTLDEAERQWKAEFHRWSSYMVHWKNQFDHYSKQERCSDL

As usually defined, the IC50 is the midpoint of a concentration-inhibition curve.

One experiment concerns the target ACHE (Mus musculus, UniProt P21836). Put plainly: biochemical.
The target in a further experiment is T1, AADAC (Mus musculus, UniProt Q99PG0).
T1 sequence (Q99PG0 1-398): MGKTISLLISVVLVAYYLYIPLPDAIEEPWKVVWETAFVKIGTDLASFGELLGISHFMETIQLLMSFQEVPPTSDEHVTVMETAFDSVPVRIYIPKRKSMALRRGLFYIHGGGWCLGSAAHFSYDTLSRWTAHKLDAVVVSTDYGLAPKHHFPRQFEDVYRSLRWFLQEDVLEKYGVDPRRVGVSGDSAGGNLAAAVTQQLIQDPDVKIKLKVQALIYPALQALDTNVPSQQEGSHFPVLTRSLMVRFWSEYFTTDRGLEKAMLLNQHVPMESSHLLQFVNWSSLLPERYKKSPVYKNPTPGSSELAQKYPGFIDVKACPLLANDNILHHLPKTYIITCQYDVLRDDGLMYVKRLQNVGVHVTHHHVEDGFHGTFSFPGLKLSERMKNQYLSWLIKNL
Briefly: Gel-based competitive ABPP. The format is biochemical.

For the compound `CCOP(=O)(OCC)Oc1nc(Cl)c(Cl)cc1Cl` [CPO, chlorpyrifos-oxon], the IC50 worked out at 17 nM on ACHE and 0.6 nM on AADAC.
